# According to patent US20070036775A1, “Method of modulating or examining Ku70 levels in cells” (priority 2001, published 2007):
# System: HEK293T cells
# Experiment: Bax-induced apoptosis in HEK293T cells (pcDNA3-Bax transfection)
# Assay type: cell-based
# Details: HEK293T cells co-transfected with pcDNA3-Bax and Ku70 construct, 24 hours
# Experimental: FIG. 1. […] FIG. 1A: Scheme of Ku70 full-length, Bax-suppressor clones (clone 1 and 2) obtained by yeast-based functional screening using pGilda-Bax plasmid for Bax expression as reported (Xu, et al., 2000). FIG. 1B: Ku70 suppresses Bax-induced apoptosis in HEK293T cells as well as XIAP. 10^6 cells were transfected with 1.0 μg of pcDNA3 (Control) or pcDNA3-Bax (Bax) together with 0.5, 1.0, or 2.0 μg of pCMV-2B-Ku70 wt (Ku70 wt) or pcDNA3-Myc-XIAP (XIAP). In “Bax+Vector” group, 1.0 μg pcDNA3-Bax and 2 ug of pCMV-2B were used, respectively (Control and Bax+Vector). All the cells were also co-transfected with 0.5 μg pEGFP for the marking of transfected cells. Apoptosis in the transfected cells was analyzed 24 hours following transfection with Hoechst dye staining of the nucleus as described in Experimental Procedure. FIG. 1C: Time course of the suppression of Bax-induced apoptosis by Ku70 and XIAP in HEK293T cells. […] Apoptosis in the transfected cells was analyzed at 24 hours (Control) or the indicated time points following transfection. […] After 24 hours, apoptotic cells were counted as described in FIG. 1B. […] The number of apoptotic cells was determined as described in FIG. 1B. […] Apoptosis in the transfected cells was analyzed at the indicated periods following transfection as described in FIG. 1C. […]
substance,measurement,value
"Ku70: human full length Ku70, 70 kDa subunit of Ku-complex (609 amino acids), expressed from pCMV-2B plasmid",effect on Bax-induced apoptosis,suppressed Bax-induced apoptosis
